Measurements taken from patent US8987242B2, “Morpholinone compounds as factor IXA inhibitors” (Merck Sharp & Dohme Corp., priority 2008, dated 2015).

Protein sequences, listed by entry. Tags and fused reporters are not part of them. Residues count along the entry.
UniProt P00740, 227-461 limits assumed: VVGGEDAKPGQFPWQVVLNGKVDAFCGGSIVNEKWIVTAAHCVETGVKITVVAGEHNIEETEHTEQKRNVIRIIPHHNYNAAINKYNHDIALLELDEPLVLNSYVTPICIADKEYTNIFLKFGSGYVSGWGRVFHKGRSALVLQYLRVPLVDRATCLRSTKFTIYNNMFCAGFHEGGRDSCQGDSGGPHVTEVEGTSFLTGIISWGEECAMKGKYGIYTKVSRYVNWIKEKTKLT
UniProt P00740, 47-191 partner limits assumed: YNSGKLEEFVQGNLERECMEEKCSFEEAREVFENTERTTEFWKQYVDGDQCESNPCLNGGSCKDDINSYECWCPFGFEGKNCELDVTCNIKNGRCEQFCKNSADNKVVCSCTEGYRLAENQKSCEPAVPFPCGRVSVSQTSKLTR

Biological target: human factor IXa (Homo sapiens (Human), UniProt P00740)
Assay: Determination of inhibitory activity against factor IXa (SPECTROFLUOR FIXa fluorogenic substrate enzyme assay)
Conditions: read-out: Factor IXa enzyme assay IC50; human factor IXa 2.0 μg/ml, SPECTROFLUOR FIXa 100 μM, 60 minutes at room temperature, pH 8.0; tested form: HCl

IC50: 0.032 µM
SMILES: CNC(=N)c1ccc(NC(=O)[C@H](O)[C@H]2OCCN(c3ccc(C(C)(C)C)cc3)C2=O)cc1
